# Earlier results, collected in patent US20220313828A1, “Use of low-molecular glycosidically bound terminal galactosides and fucosides for bonding to toxins that act as galectins in the treatment of intoxications, in particular ricin intoxications” (published 2022).
# Test system: breast cancer metastases
# Conditions: reference (6)
substance,measurement,value
N-(1-deoxy-D-lactulos-1-yl)-L-leucine,test on breast cancer metastases,successfully tested
